Laboratory results published in US9096555B2, “Methods for treating vascular leak syndrome” (Aerpio Therapeutics, Inc., priority 2009, dated 2015).

How the values were obtained:
IL-2 induced VLS = test: IL-2 induced vascular leak syndrome in mice (blood pressure, shock, mortality); type: in vivo
Protocol: FIG. 1 depicts the effect of 4-{(S)-2-[(S)-2-(methoxycarbonylamino)-3-phenyl-propanamido]-2-[2-(thiophen-2-yl)thiazol-4-yl]ethyl}phenylsulfamic acid ammonium salt (inhibitor) on murine blood pressure during IL-2 induced VLS at low and high IL-2 dosing. […] A depicts the control sample; B depicts mice treated with 180,000 IU of IL-2 for 5 days; C depicts mice treated with 180,000 IU of IL-2 for 5 days and 40 mg/kg of D91 for the first 2 days, then at 20 mg/kg for 3 days; D depicts mice treated with 400,000 IU of IL-2 for 5 days; E depicts mice treated with 400,000 IU of IL-2 for 5 days and 40 mg/kg of D91 for the first 2 days, then at 20 mg/kg for 3 days.
FIG. 2 depicts the effect of 4-{(S)-2-[(S)-2-(methoxycarbonylamino)-3-phenyl-propanamido]-2-[2-(thiophen-2-yl)thiazol-4-yl]ethyl}phenylsulfamic acid ammonium salt, a Tie-2 signal amplifier, on IL-2 induced shock in mice. A depicts the control sample; B depicts mice treated with 180,000 IU of IL-2 for 5 days; C depicts mice treated with 180,000 IU of IL-2 for 5 days and 40 mg/kg of D91 for the first 2 days, then at 20 mg/kg for 3 days; D depicts mice treated with 400,000 IU of IL-2 for 5 days; E depicts mice treated with 400,000 IU of IL-2 for 5 days and 40 mg/kg of D91 for the first 2 days, then at 20 mg/kg for 3 days.
FIG. 3 depicts the effect of 4-{(S)-2-[(S)-2-(methoxycarbonylamino)-3-phenyl-propanamido]-2-[2-(thiophen-2-yl)thiazol-4-yl]ethyl}phenylsulfamic acid ammonium salt, a Tie-2 signal amplifier, on IL-2 induced murine mortality. […]
The animals were monitored for symptoms related to vascular leak syndrome seen in patients treated with high doses of IL-2, inter alia, blood pressure (hyportension/shock), viability (death), lung histology (VSL pathology) and serum cytokine etc. […]

[1] = system: metastatic renal cell carcinoma (RCC) and metastatic melanoma; settings: cited from earlier work
[2] = high-dose interleukin-2 therapy, Elias et al. 2001

In the case of “IL-2: immune system signaling molecule; high-dose interleukin-2 is an FDA approved treatment for metastatic renal cell carcinoma and metastatic melanoma [reference compound]”, the blood pressure (IL-2 induced VLS; high dose of IL-2 (400,000 units per day, 5 days) without Tie-2 signal amplifier, FIG. 1) was 0 mm Hg, the “animals showing clinical symptoms of shock” value (IL-2 induced VLS; high doses of IL-2 (400,000 units per day, 5 days) without Tie-2 signal amplifier, FIG. 2) was 60% and the animals that died (IL-2 induced VLS; high doses of IL-2 (400,000 units per day, 5 days) without Tie-2 signal amplifier, FIG. 3) was 40%. The “duration of tumor response” value [1, 2] was “exceed 10 years”, the “subjects showing a tumor response” value [1, 2] was 23% and the “patients interrupting or discontinuing treatment due to VLS” value ([1]; human, in vivo) was ≤ 65%.
